The source of these data is patent publication US9872881B2, “Bone and metal targeted polymeric nanoparticles” (The Brigham and Women's Hospital, Inc., priority 2013, dated 2018).

Bounds are passed on as bounds.

This experiment deals with bone marrow-derived human mesenchymal stem cells. Description: ALP enzymatic activity induction in hMSCs. In kind it is cell-based. As to the method:
The in vitro experiments were performed on bone marrow-derived human mesenchymal stem cells (hMSC, PT-2501, Lonza). hMSCs were cultured in normal growth media (POIETICS™ MSCGM™ BULLETKIT™ (PT-3001) Lonza), in 5% CO2 at 37° C. The cells were cultured until 70-75% confluence and were used before passage 5 for all the experiments. The cells were trypsinized (CC-3232, Lonza) and seeded in 48-well plates at the density of 5000 cells/well in normal growth media. After 24 hours, the media was replaced with the normal and osteoconductive (supplemented with 10 nM β-glycerol phosphate and 50 μg/ml ascorbic acid). […]
In order to detect the alkaline phosphatase (ALP) activity induced by the rhBMP-2, the hMSCs were seeded in 48 well plates as described above and after 24 hrs incubation in the growth medium the cells were treated with rhBMP-2 loaded NPs in normal media and osteoconductive media conditions. […] The ALP activity in hMSCs was measured using a colorimetric endpoint assay (Alkaline Phosphatase Colorimetric Assay Kit (ab83369)), which quantified the conversion of p-nitrophenol phosphate (pNPP) to yellow p-nitrophenol (pNPP) by ALP enzyme. […] After 1 h of incubation, the absorbance was read at 405 nm in a microplate reader (microplate reader, BioTEK). […]

For “rhBMP2: recombinant bone morphogenic protein BMP-2 added free to the media on day 1 (positive control)”, the “time of peak ALP activity” value is > 14 days.
